Assay: Thermodynamic solubility assay
Settings: 24-hour incubation, ambient temperature (22.3-23.8° C.), HPLC-UV 280 nm

CC1=NO[C@@]2(CC[C@H](C)N3C[C@H]2n2cc(C(=O)NCc4ccc(F)cc4F)c(=O)c(OC(=O)N(C)C[C@@H]4CCCN4C(=O)OCOP(=O)(O)O)c2C3=O)C1
Thermodynamic FaSSIF Solubility @ 24 h: 4630 µg/mL

— patent publication US20250127801A1, “BRIDGED TRICYCLIC CARBAMOYLPYRIDONE COMPOUNDS AND USES THEREOF” (priority 2023, published 2025)
